## Apparent affinities of Ab-95 variants for a coronavirus HR2 peptide

Source: Engelhart et al. 2022 (doi:10.1038/s41597-022-01779-4), MIT Lincoln Laboratory and A-Alpha Bio; data file from the FLAb repository.

Antigen: PDVDLGDISGINAS, a 14-residue peptide of the SARS-CoV-2 spike HR2 region.

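Phage display of a naive human antibody library on the peptide gave the parent. The library (AAYL52) carries one to three amino acid substitutions per variant, with no insertions or deletions. Affinity was read by AlphaSeq, a pooled yeast mating assay with surface-displayed partners. After mating in shaken culture at 30 °C for 16 h, diploids were selected and their barcode pairs sequenced. Each replicate has its own calibration line, from reference interactions of the BCL2 family. There are three technical replicates.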

The variants keep the heavy chain, the linker and the frameworks of Ab-95 (scFv order VH, the linker GGGGSGGGGSGGGGS, VL).
VH: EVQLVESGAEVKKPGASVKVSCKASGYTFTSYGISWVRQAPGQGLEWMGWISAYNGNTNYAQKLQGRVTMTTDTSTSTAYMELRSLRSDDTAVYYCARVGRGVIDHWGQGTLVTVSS
VL: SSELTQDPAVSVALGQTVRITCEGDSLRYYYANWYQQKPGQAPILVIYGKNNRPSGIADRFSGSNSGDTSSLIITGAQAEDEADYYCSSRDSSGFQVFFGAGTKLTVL

Substitutions are numbered in sequence along the VL above, starting at 1 (not Kabat). Every variant below is changed at P54 of the VL (sequential numbering). Values are apparent Kd, the geometric mean of the replicates that gave a signal; lower means stronger binding. An entry "nd" has no value in the source: the pair was not observed among the diploids in any replicate. This suggests poor binding but is not conclusive. Nonspecific signal, from three strains lacking the peptide, appeared in 28% of pairings of library AAYL52, centred on 8.2 µM (5% of these signals below 800 nM); values are not corrected for it. In this assay the parent's reference entry averaged 200 nM; its copy inside this library read 180 nM.

* P54M+S55K+R90Y: 2.3 µM (2 of 3 replicates)
* N51K+P54A+S89G: 51 µM (2 of 3 replicates)
* S26Q+N33E+P54Q: 28 µM (1 of 3 replicates)
* P54K+R90D+S93I: 36 µM (1 of 3 replicates)
* R53N+P54I+S55C: 3.7 µM (3 of 3 replicates)
* R53E+P54T+V97C: nd (0 of 3 replicates)
* G49H+P54W+S93D: nd (0 of 3 replicates)
* S26A+P54R+D91F: 89 µM (1 of 3 replicates)
* S26N+R28C+P54Q: 27 µM (1 of 3 replicates)
* G24C+N52E+P54H: 1.8 µM (3 of 3 replicates)
* Y31H+P54V+Q96I: 4.3 µM (2 of 3 replicates)
* L27Y+Y31Q+P54M: nd (0 of 3 replicates)
* P54Q+G94I+Q96D: 970 nM (2 of 3 replicates)
* E23F+A32F+P54H: 130 nM (3 of 3 replicates)
* S26R+P54G+S93Q: 1.3 µM (3 of 3 replicates)
* A32W+K50C+P54E: nd (0 of 3 replicates)
* R28M+P54E+V97G: 64 µM (2 of 3 replicates)
* N33G+P54Q+F95Q: nd (0 of 3 replicates)
* R28I+Y30P+P54M: 580 nM (3 of 3 replicates)
* Y29G+P54V+S93A: 33 nM (3 of 3 replicates)
* G49I+P54M: nd (0 of 3 replicates)
* A32V+P54G+G94H: 410 nM (3 of 3 replicates)
* P54Y+S93Q: 5.5 µM (2 of 3 replicates)
* N51D+P54A: 140 nM (3 of 3 replicates)
* Y29K+Y30E+P54F: 50 nM (3 of 3 replicates)
* P54C+S88R+D91E: 310 µM (1 of 3 replicates)
* Y29G+P54K: 300 nM (3 of 3 replicates)
* P54E+S93E+Q96M: 1.8 µM (1 of 3 replicates)
* P54T: 310 nM (3 of 3 replicates)
* L27W+N33C+P54T: 100 µM (1 of 3 replicates)
* A32Q+R53K+P54W: 33 µM (1 of 3 replicates)
* S26G+Y31C+P54D: 360 nM (3 of 3 replicates)
* R53P+P54C+S55E: 28 µM (1 of 3 replicates)
* R28K+P54G+S88T: 3.0 µM (3 of 3 replicates)
* D25N+N33Y+P54L: nd (0 of 3 replicates)
* P54H+F95Q: 290 nM (2 of 3 replicates)
* G49Y+P54V+D91G: 12 µM (3 of 3 replicates)
* S26L+P54A+S92I: 1.3 µM (2 of 3 replicates)
* G24C+P54W+F98D: 93 µM (2 of 3 replicates)
* Y30D+P54L+D91A: 670 nM (2 of 3 replicates)
* R53C+P54F+Q96H: 920 nM (1 of 3 replicates)
* R28G+R53M+P54N: 6.8 µM (1 of 3 replicates)
* N51V+R53K+P54R: nd (0 of 3 replicates)
* P54E+Q96Y+F98R: 16 µM (3 of 3 replicates)
* R53K+P54V+F95L: 2.0 µM (3 of 3 replicates)
* Y29N+P54D+F98S: 180 nM (3 of 3 replicates)
* D25I+Y31L+P54W: 5.2 µM (1 of 3 replicates)
* L27S+P54L+F95N: 13 µM (1 of 3 replicates)
* N33V+P54H+S55G: 3.9 µM (1 of 3 replicates)
* P54I+S55E+S88R: 30 µM (1 of 3 replicates)

The closing 3 entries, repeated:

{"changes": "L27S+P54L+F95N", "Kd": "13 µM", "seen in": "1 of 3"}
{"changes": "N33V+P54H+S55G", "Kd": "3.9 µM", "seen in": "1 of 3"}
{"changes": "P54I+S55E+S88R", "Kd": "30 µM", "seen in": "1 of 3"}